The molecules below were run against bovine cardiac myosin (Bos taurus, UniProt Q9BE39) (assay: Myosin activation assay (PK/LDH-coupled ATPase, bovine cardiac myofibrils)). Settings: concentration at which the total response is increased by twenty percent.

By UniProt entry, the sequences of proteins in these tests, tags left out.
UniProt Q9BE39, whole entry: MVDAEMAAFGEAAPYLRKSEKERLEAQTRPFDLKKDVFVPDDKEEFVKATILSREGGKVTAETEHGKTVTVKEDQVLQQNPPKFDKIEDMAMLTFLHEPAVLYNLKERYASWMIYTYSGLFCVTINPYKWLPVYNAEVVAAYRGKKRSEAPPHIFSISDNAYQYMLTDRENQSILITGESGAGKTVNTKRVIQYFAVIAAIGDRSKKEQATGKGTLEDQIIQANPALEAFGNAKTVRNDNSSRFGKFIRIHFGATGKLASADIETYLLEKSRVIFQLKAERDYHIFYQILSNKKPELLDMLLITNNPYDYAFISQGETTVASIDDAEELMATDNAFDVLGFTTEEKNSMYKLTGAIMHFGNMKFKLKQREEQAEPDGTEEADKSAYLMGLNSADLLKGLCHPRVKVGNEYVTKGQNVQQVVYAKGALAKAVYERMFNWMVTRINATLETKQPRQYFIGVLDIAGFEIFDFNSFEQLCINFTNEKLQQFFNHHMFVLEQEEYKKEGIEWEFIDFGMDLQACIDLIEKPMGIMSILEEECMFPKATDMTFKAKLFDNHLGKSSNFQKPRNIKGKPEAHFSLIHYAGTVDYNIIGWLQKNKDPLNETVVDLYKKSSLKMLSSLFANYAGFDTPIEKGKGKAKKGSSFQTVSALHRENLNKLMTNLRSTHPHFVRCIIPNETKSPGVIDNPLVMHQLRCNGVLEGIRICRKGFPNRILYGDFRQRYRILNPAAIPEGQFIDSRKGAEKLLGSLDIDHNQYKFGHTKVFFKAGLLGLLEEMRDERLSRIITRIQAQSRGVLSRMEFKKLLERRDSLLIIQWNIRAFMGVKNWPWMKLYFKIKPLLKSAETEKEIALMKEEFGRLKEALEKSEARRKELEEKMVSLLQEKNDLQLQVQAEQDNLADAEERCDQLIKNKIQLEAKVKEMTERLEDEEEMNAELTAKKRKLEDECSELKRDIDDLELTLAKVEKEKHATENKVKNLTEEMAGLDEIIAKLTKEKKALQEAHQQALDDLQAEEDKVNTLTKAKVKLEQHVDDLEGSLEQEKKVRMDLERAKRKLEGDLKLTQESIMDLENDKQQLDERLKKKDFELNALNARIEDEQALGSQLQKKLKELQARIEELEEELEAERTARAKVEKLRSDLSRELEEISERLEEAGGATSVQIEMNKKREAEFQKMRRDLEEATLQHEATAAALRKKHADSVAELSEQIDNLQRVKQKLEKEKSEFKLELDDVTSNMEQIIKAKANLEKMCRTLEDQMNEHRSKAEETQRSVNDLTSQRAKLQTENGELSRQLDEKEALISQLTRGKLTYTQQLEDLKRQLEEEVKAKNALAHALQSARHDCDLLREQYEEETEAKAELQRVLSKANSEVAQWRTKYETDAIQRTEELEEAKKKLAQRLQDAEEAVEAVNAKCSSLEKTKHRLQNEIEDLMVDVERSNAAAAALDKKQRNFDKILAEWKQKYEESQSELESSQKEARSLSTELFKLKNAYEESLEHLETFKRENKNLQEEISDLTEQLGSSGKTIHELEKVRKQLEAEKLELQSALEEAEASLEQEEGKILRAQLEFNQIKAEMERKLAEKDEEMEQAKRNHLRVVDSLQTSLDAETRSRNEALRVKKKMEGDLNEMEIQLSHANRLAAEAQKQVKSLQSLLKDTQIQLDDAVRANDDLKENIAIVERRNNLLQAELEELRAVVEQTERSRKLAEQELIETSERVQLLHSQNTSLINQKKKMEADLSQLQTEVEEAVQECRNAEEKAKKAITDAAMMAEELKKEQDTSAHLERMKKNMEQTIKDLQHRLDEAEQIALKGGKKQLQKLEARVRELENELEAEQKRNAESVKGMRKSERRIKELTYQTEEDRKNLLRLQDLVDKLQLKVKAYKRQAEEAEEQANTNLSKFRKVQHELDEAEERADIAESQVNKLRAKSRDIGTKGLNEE
UniProt Q3SZE5, whole entry partner: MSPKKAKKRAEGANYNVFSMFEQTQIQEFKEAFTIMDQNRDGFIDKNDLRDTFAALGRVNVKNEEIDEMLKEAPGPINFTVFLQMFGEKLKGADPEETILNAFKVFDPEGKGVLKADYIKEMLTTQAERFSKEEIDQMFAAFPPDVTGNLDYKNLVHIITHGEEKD
UniProt P85100, whole entry partner: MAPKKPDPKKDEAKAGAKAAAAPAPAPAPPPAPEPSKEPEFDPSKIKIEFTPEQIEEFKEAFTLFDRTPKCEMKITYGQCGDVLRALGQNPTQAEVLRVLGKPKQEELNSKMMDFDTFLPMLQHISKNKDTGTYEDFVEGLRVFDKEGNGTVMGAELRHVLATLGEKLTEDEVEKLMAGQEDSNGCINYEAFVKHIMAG

Row | Molecule | Myosin Activation (AC20)
1 | Cc1cc(NC(=O)N2CCC(C(C)(C)S(=O)(=O)c3cccc(F)c3)CC2)no1 | + (+ represents myosin activation value AC20 > 5 µM)
2 | Cn1nccc1S(=O)(=O)C(C)(C)C1CCN(C(=O)Nc2ccncc2)CC1 | ++ (++ represents myosin activation value AC20 from 2 µM - 5 µM)
3 | CC(C)n1cc(S(=O)(=O)CC2CCN(C(=O)Nc3ccncc3)CC2)cn1 | + (+ represents myosin activation value AC20 > 5 µM)
4 | O=C(Nc1ccnnc1)N1CCC(C2(S(=O)(=O)c3cccc(F)c3)CC(F)(F)C2)CC1 | ++ (++ represents myosin activation value AC20 from 2 µM - 5 µM)
5 | Cn1nc(C(F)F)cc1S(=O)(=O)C(C)(F)C1CCN(C(=O)Nc2ccon2)CC1 (stereo not drawn) | +++ (+++ represents myosin activation value AC20 < 2 µM)
6 | CCn1nccc1S(=O)(=O)C(C)(F)C1CCN(C(=O)Nc2ccnnc2)CC1 (stereo not drawn) | ++ (++ represents myosin activation value AC20 from 2 µM - 5 µM)
7 | CC(C)(C1CCN(C(=O)Nc2ccncc2)CC1)S(=O)(=O)c1cccc(F)c1 | +++ (+++ represents myosin activation value AC20 < 2 µM)
8 | COc1ccccc1S(=O)(=O)C(F)(F)C1CCN(C(=O)Nc2ccnnc2)CC1 | + (+ represents myosin activation value AC20 > 5 µM)
9 | CC(C)(C1CCN(C(=O)Nc2cnns2)CC1)S(=O)(=O)c1ccc(C#N)cc1 | +++ (+++ represents myosin activation value AC20 < 2 µM)
10 | Cn1cnc(S(=O)(=O)C(C)(F)C2CCN(C(=O)Nc3ccnnc3)CC2)c1 (stereo not drawn) | + (+ represents myosin activation value AC20 > 5 µM)
11 | O=C(Nc1ccnnc1)N1CCC(C(F)(F)S(=O)(=O)c2ccccc2-n2cccn2)CC1 | + (+ represents myosin activation value AC20 > 5 µM)
12 | COc1ccccc1S(=O)(=O)C(C)(F)C1CCN(C(=O)Nc2ccnnc2)CC1 (stereo not drawn) | ++ (++ represents myosin activation value AC20 from 2 µM - 5 µM)
13 | Cn1nccc1S(=O)(=O)C(C)(C)C1CCN(C(=O)Nc2ccon2)CC1 | ++ (++ represents myosin activation value AC20 from 2 µM - 5 µM)
14 | O=C(Nc1ccnnc1)N1CCC(C2(S(=O)(=O)c3ccc(C(F)(F)F)cc3)CCC2)CC1 | +++ (+++ represents myosin activation value AC20 < 2 µM)
15 | C[C@](F)(C1CCN(C(=O)Nc2ccnc(C#N)c2)CC1)S(=O)(=O)c1cccc(F)c1 | + (+ represents myosin activation value AC20 > 5 µM)
16 | CCn1nccc1S(=O)(=O)C(F)(F)C1CCN(C(=O)Nc2ccnnc2)CC1 | + (+ represents myosin activation value AC20 > 5 µM)
17 | Cn1cc(S(=O)(=O)C(C)(C)C2CCN(C(=O)Nc3cn[nH]c3)CC2)c(C(F)(F)F)n1 | ++ (++ represents myosin activation value AC20 from 2 µM - 5 µM)
18 | CC(C)(C1CCN(C(=O)Nc2ccncc2)CC1)S(=O)(=O)c1ccccc1C#N | ++ (++ represents myosin activation value AC20 from 2 µM - 5 µM)
19 | Cn1ccc(NC(=O)N2CCC(C(C)(C)S(=O)(=O)c3cccc(F)c3)CC2)n1 | + (+ represents myosin activation value AC20 > 5 µM)
20 | Cn1cc(S(=O)(=O)C(C)(C)C2CCN(C(=O)Nc3ccc(F)nc3)CC2)c(C(F)F)n1 | ++ (++ represents myosin activation value AC20 from 2 µM - 5 µM)
21 | CC(C)(C1CCN(C(=O)Nc2ccnnc2)CC1)S(=O)(=O)c1ccn2nccc2c1 | +++ (+++ represents myosin activation value AC20 < 2 µM)

Row | Molecule | Myosin Activation (AC20)
22 | Cn1nccc1S(=O)(=O)C1(C2CCN(C(=O)Nc3ccnnc3)CC2)CCC1 | +++ (+++ represents myosin activation value AC20 < 2 µM)
23 | CC(F)(C1CCN(C(=O)Nc2ccc(F)nc2)CC1)S(=O)(=O)c1cccc(C#N)c1 (stereo not drawn) | + (+ represents myosin activation value AC20 > 5 µM)
24 | C[C@@](F)(C1CCN(C(=O)Nc2ccc(C#N)nc2)CC1)S(=O)(=O)c1cccc(F)c1 | + (+ represents myosin activation value AC20 > 5 µM)
25 | Cc1cc(NC(=O)N2CCC(C(C)(C)S(=O)(=O)c3cn(C)nc3C(F)F)CC2)no1 | + (+ represents myosin activation value AC20 > 5 µM)
26 | CC(C)(C1CCN(C(=O)Nc2cnccn2)CC1)S(=O)(=O)c1cccc(F)c1 | + (+ represents myosin activation value AC20 > 5 µM)
27 | CCn1nccc1S(=O)(=O)C(C)(C)C1CCN(C(=O)Nc2ccnnc2)CC1 | + (+ represents myosin activation value AC20 > 5 µM)
28 | [2H]C([2H])([2H])n1cc(S(=O)(=O)[C@@](F)(C2CCN(C(=O)Nc3ccon3)CC2)C([2H])([2H])[2H])c(C(F)F)n1 | +++ (+++ represents myosin activation value AC20 < 2 µM)
29 | COc1ccc(F)cc1S(=O)(=O)C(F)(F)C1CCN(C(=O)Nc2ccnnc2)CC1 | + (+ represents myosin activation value AC20 > 5 µM)
30 | CC(C)(C1CCN(C(=O)Nc2ccon2)CC1)S(=O)(=O)c1ccc(C(F)(F)F)nc1 | + (+ represents myosin activation value AC20 > 5 µM)
31 | O=C(Nc1cnns1)N1CCC(C(F)(F)S(=O)(=O)c2ccc(C(F)(F)F)cc2)CC1 | ++ (++ represents myosin activation value AC20 from 2 µM - 5 µM)
32 | CCn1nccc1S(=O)(=O)C(C)(C)C1CCN(C(=O)Nc2cnns2)CC1 | ++ (++ represents myosin activation value AC20 from 2 µM - 5 µM)
33 | O=C(Nc1ccnnc1)N1CCC(C(F)(F)S(=O)(=O)c2cccc(F)c2)CC1 | ++ (++ represents myosin activation value AC20 from 2 µM - 5 µM)
34 | CC(C)(C1CCN(C(=O)Nc2cnns2)CC1)S(=O)(=O)c1cccc(F)c1 | +++ (+++ represents myosin activation value AC20 < 2 µM)
35 | Cc1cnccc1NC(=O)N1CCC(C(C)(C)S(=O)(=O)c2cccc(F)c2)CC1 | + (+ represents myosin activation value AC20 > 5 µM)
36 | Cn1ncc2c(S(=O)(=O)C(F)(F)C3CCN(C(=O)Nc4ccnnc4)CC3)cccc21 | ++ (++ represents myosin activation value AC20 from 2 µM - 5 µM)
37 | Cn1cc(S(=O)(=O)C(F)(F)C2CCN(C(=O)Nc3ccc(C#N)nc3)CC2)c(C(F)F)n1 | + (+ represents myosin activation value AC20 > 5 µM)
38 | CC(F)(C1CCN(C(=O)Nc2ccno2)CC1)S(=O)(=O)c1cccc(F)c1 (stereo not drawn) | ++ (++ represents myosin activation value AC20 from 2 µM - 5 µM)
39 | Cn1nccc1S(=O)(=O)C(C)(F)C1CCN(C(=O)Nc2ccnnc2)CC1 (stereo not drawn) | ++ (++ represents myosin activation value AC20 from 2 µM - 5 µM)
40 | O=C(Nc1ccncc1)N1CCC(C2(S(=O)(=O)c3cccc(F)c3)CC2)CC1 | +++ (+++ represents myosin activation value AC20 < 2 µM)
41 | N#Cc1ccc(S(=O)(=O)C2(C3CCN(C(=O)Nc4ccnnc4)CC3)CCC2)cc1 | +++ (+++ represents myosin activation value AC20 < 2 µM)
42 | CC(C)(C1CCN(C(=O)Nc2ccns2)CC1)S(=O)(=O)c1ccccc1Cl | ++ (++ represents myosin activation value AC20 from 2 µM - 5 µM)

Row | Molecule | Myosin Activation (AC20)
43 | Cc1ccc(S(=O)(=O)C(F)(F)C2CCN(C(=O)Nc3ccnnc3)CC2)cn1 | ++ (++ represents myosin activation value AC20 from 2 µM - 5 µM)
44 | C[C@](F)(C1CCN(C(=O)Nc2ccon2)CC1)S(=O)(=O)c1cccc(F)c1 | +++ (+++ represents myosin activation value AC20 < 2 µM)
45 | 4-(1-Fluoro-1-((3-fluorophenyl)sulfonyl)ethyl)-N-(1-methyl-1H-pyrazol-4-yl)piperidine-1-carboxamide | + (+ represents myosin activation value AC20 > 5 µM)
46 | Cn1cc(S(=O)(=O)C(C)(C)C2CCN(C(=O)Nc3ccon3)CC2)c(Cl)n1 | + (+ represents myosin activation value AC20 > 5 µM)
47 | Cc1ccc(NC(=O)N2CCC(C(C)(F)S(=O)(=O)c3cc(C(F)F)nn3C)CC2)cn1 (stereo not drawn) | ++ (++ represents myosin activation value AC20 from 2 µM - 5 µM)
48 | Cn1nc(C(F)(F)F)cc1S(=O)(=O)C(C)(F)C1CCN(C(=O)Nc2ccnc(F)c2)CC1 (stereo not drawn) | ++ (++ represents myosin activation value AC20 from 2 µM - 5 µM)
49 | Cc1ccc(F)cc1S(=O)(=O)C(F)(F)C1CCN(C(=O)Nc2ccnnc2)CC1 | ++ (++ represents myosin activation value AC20 from 2 µM - 5 µM)
50 | CC(C)(C1CCN(C(=O)Nc2ccncc2Cl)CC1)S(=O)(=O)c1cccc(F)c1 | + (+ represents myosin activation value AC20 > 5 µM)
51 | O=C(Nc1ccncc1)N1CCC(C2(S(=O)(=O)c3ccc(OC(F)(F)F)cc3)CC2)CC1 | +++ (+++ represents myosin activation value AC20 < 2 µM)
52 | CC(F)(C1CCN(C(=O)Nc2ccnnc2)CC1)S(=O)(=O)c1ccc(OC(F)F)nc1 (stereo not drawn) | +++ (+++ represents myosin activation value AC20 < 2 µM)
53 | Cc1ccc(NC(=O)N2CCC([C@](C)(F)S(=O)(=O)c3cn(C)nc3C(F)F)CC2)cn1 | ++ (++ represents myosin activation value AC20 from 2 µM - 5 µM)
54 | CC(F)(C1CCN(C(=O)Nc2ccnnc2)CC1)S(=O)(=O)c1cccc(C#N)c1 (stereo not drawn) | +++ (+++ represents myosin activation value AC20 < 2 µM)
55 | Cc1ccc(NC(=O)N2CCC(C(C)(C)S(=O)(=O)c3cccc(F)c3)CC2)nn1 | + (+ represents myosin activation value AC20 > 5 µM)
56 | Cn1nccc1S(=O)(=O)C(C)(F)C1CCN(C(=O)Nc2cnns2)CC1 (stereo not drawn) | +++ (+++ represents myosin activation value AC20 < 2 µM)
57 | CC(C)(C1CCN(C(=O)Nc2ccns2)CC1)S(=O)(=O)c1cccc(F)c1 | ++ (++ represents myosin activation value AC20 from 2 µM - 5 µM)
58 | O=C(Nc1ccnnc1)N1CCC(C(F)(F)S(=O)(=O)c2cccc3c2COC3)CC1 | ++ (++ represents myosin activation value AC20 from 2 µM - 5 µM)
59 | Cn1nccc1S(=O)(=O)C(C)(C)C1CCN(C(=O)Nc2ccnnc2)CC1 | +++ (+++ represents myosin activation value AC20 < 2 µM)
60 | N#Cc1ccc(S(=O)(=O)C(F)(F)C2CCN(C(=O)Nc3ccnnc3)CC2)cc1 | ++ (++ represents myosin activation value AC20 from 2 µM - 5 µM)
61 | Cc1cc(OC(F)(F)F)ccc1S(=O)(=O)C(F)(F)C1CCN(C(=O)Nc2ccnnc2)CC1 | ++ (++ represents myosin activation value AC20 from 2 µM - 5 µM)
62 | Cn1nc(C(F)(F)F)cc1S(=O)(=O)[C@@](C)(F)C1CCN(C(=O)Nc2ccon2)CC1 | +++ (+++ represents myosin activation value AC20 < 2 µM)
63 | O=C(Nc1ccnnc1)N1CCC(C2(S(=O)(=O)c3cc(F)cc(F)c3)CCC2)CC1 | +++ (+++ represents myosin activation value AC20 < 2 µM)

From patent EP4847505A1, “4-METHYLSULFONYL-SUBSTITUTED PIPERIDINE UREA COMPOUNDS” (dated 2026)
